scFv variants of Ab-14 (heavy chain) against a SARS-CoV-2 spike peptide

Target: peptide PDVDLGDISGINAS, taken from heptad repeat 2 (HR2) of SARS-CoV-2 spike.

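The parent was found by panning a naive human phage display library on the peptide. AAYL49 was designed without a model: most single CDR substitutions and a random sample of double and triple ones. In AlphaSeq, yeast of one mating type display the scFv and yeast of the other type display the target. The frequency of each diploid, read from paired DNA barcodes, reflects how well the two displayed proteins bind. Scores were corrected for input abundance and mapped to Kd with protein pairs of known affinity run in the same pool. The assay was run in three technical replicates.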

Ab-14 is the parent antibody, in scFv form: VH, then the linker GGGGSGGGGSGGGGS, then VL. The light chain is unchanged in all variants.
VH: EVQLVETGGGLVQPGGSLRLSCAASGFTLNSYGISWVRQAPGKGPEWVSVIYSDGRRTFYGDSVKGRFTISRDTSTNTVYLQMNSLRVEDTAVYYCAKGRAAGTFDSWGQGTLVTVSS
VL: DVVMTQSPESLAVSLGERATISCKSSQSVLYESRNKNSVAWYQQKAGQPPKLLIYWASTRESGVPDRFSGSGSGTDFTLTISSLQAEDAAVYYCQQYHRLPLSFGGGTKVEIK

Variants are written as CDR1, CDR2 and CDR3 of the heavy chain (limits as in the source). Parent: GFTLNSYGIS, VIYSDGRRTFYGDSVK, GRAAGTFDS.
Values are log10 of the apparent Kd in nM; lower means stronger binding.
"n.d." marks a missing value. The strain was present, yet no cells mated with the target were sequenced in that replicate, which points to weak or no binding.
As a blank, each scFv also met three strains without target: over library AAYL49, 15% of these pairings were detected, typically at 4.06 and seldom below 2.83. The control count says in how many pairings with the empty strains this scFv gave a signal, with their mean in brackets.

CDR-H1	CDR-H2	CDR-H3	log10 Kd (nM) by replicate	control signals
GFTLGSYGNS	VIYSDGRKTFYGDSVK	GRAAGTFDS	3.72 3.72 n.d.	2/9 (3.81)
GFTLNSYGIE	VIYSDGRRTMYGDSVK	GRAYGTFDS	n.d. n.d. n.d.	0/9
GFTLNCYGIS	VDYSDGRRTFYGDSVK	GRAAYTFDS	n.d. n.d. n.d.	1/9 (3.52)
GFTLNSYGWS	VIYSDGRRTFYLDSVK	GRAAGTFDS	n.d. n.d. n.d.	0/9
GFTLNSYGYS	VIVSDGCRTFYGDSVK	GRAAGTFDS	n.d. n.d. n.d.	0/9
GFTLNSYGIS	VIESDGRRTFYGDSAK	GRADGTFDS	4.55 n.d. n.d.	0/9
GVTLNSYGMS	VIYSDGRRTFYGDIVK	GRAAGTFDS	n.d. n.d. n.d.	2/9 (3.60)
GFTLNSYAES	VIYSDGRRTFYGDSVK	GRHAGTFDS	n.d. n.d. n.d.	0/9
GWTLTSYGIS	VIYSDGRRTFYGDSVH	GRAAGTFDS	n.d. n.d. n.d.	0/9
GATLNSYGIQ	VIYHDGRRTFYGDSVK	GRAAGTFDS	n.d. n.d. n.d.	0/9
GFTLNCYGIS	VIYSDGRRPFYGDSVK	YRAAGTFDS	n.d. 4.68 4.33	8/9 (4.35)
GFWLNSYGIS	VIYSDLRRTFYGDSVK	GRAAGTFDS	n.d. n.d. n.d.	0/9
GFTLNSPGIS	VIYSDGRRTFYGDSVC	GRAAGDFDS	n.d. n.d. n.d.	0/9
GFTLNSCGIS	VIYSDGRRTFYGDDVK	GRAIGTFDS	n.d. n.d. n.d.	0/9
GFTLNSYCIS	VIYSSGRRTFYGDSVK	GRAWGTFDS	n.d. n.d. n.d.	2/9 (3.81)
GFTLNSYEIS	VIYSDGRRTFYGDSVK	GRAATGFDS	n.d. 3.69 n.d.	1/9 (3.37)
GFTLNSYQIS	VIYSYGRRHFYGDSVK	GRAAGTFDS	n.d. n.d. n.d.	1/9 (3.08)
GFTLNIYGYS	VIQSDGRRTFYGDSVK	GRAAGTFDS	n.d. 4.13 4.11	5/9 (3.98)
GSTLNSYGIS	VILSDGRRTFYMDSVK	GRAAGTFDS	n.d. n.d. n.d.	0/9
GFTLRSYGIS	VIYSDDRRWFYGDSVK	GRAAGTFDS	n.d. n.d. n.d.	1/9 (2.60)
MFTLNSYGIS	VIYSDGRRQFYGDSVK	GRAAGWFDS	n.d. n.d. n.d.	0/9
GFTLNNYGIS	VTYSDGRRTFYGDSVK	GRAAGTFDT	n.d. n.d. n.d.	0/9
GFTLNSYGIS	VIYSDGRRTFYGDSVK	GHSAGWFDS	1.57 1.91 1.67	0/9
GLTLNSYKIS	VIYSDGRRTFYGDSMK	GRAAGTFDS	n.d. n.d. n.d.	2/9 (4.36)
GFTLNSYGIS	VIYSDGRRTFYGDSVK	GVHAGTYDS	2.70 2.00 2.60	1/9 (3.36)
GFTLNSYGIS	VIYSSGRRTFHGDSVK	GRAAGTFDS	n.d. n.d. n.d.	1/9 (3.73)
NFTLNSYGIS	VIYSDKRRTFYGDSVK	GRAAGTMDS	n.d. n.d. n.d.	5/9 (4.51)
AFTLNSYAIS	VIYSDGRRTFYMDSVK	GRAAGTFDS	n.d. n.d. n.d.	1/9 (3.75)
GFTLNSYGIS	VIYSDGRRTFYYDSVK	GRAAGTFGS	n.d. n.d. n.d.	0/9
GFTLNSAGIS	VIYSDGRRNFPGDSVK	GRAAGTFDS	n.d. n.d. 3.60	0/9
GQTLRSYGIS	VIYSDGRRTFYGDSIK	GRAAGTFDS	3.94 3.28 4.64	0/9
GFTLNMYGIS	VIYSDGRRTFYGDSVK	GRAAGTFDS	n.d. n.d. n.d.	1/9 (2.12)
GFTLNSYGIL	VIYIDGRRTFYGDSVK	GRAPGTFDS	5.63 3.82 4.60	6/9 (4.60)
GFTLNSYGIM	CIYSDNRRTFYGDSVK	GRAAGTFDS	n.d. n.d. n.d.	3/9 (3.54)

From the list, the first 5 with no signal in any replicate:

{"CDR-H1": "GFTLNSYGIE", "CDR-H2": "VIYSDGRRTMYGDSVK", "CDR-H3": "GRAYGTFDS", "log10 Kd (nM) by replicate": "n.d. n.d. n.d.", "control signals": "0/9"}
{"CDR-H1": "GFTLNCYGIS", "CDR-H2": "VDYSDGRRTFYGDSVK", "CDR-H3": "GRAAYTFDS", "log10 Kd (nM) by replicate": "n.d. n.d. n.d.", "control signals": "1/9 (3.52)"}
{"CDR-H1": "GFTLNSYGWS", "CDR-H2": "VIYSDGRRTFYLDSVK", "CDR-H3": "GRAAGTFDS", "log10 Kd (nM) by replicate": "n.d. n.d. n.d.", "control signals": "0/9"}
{"CDR-H1": "GFTLNSYGYS", "CDR-H2": "VIVSDGCRTFYGDSVK", "CDR-H3": "GRAAGTFDS", "log10 Kd (nM) by replicate": "n.d. n.d. n.d.", "control signals": "0/9"}
{"CDR-H1": "GVTLNSYGMS", "CDR-H2": "VIYSDGRRTFYGDIVK", "CDR-H3": "GRAAGTFDS", "log10 Kd (nM) by replicate": "n.d. n.d. n.d.", "control signals": "2/9 (3.60)"}

In this assay the parent's reference entry averaged 0.65; its copy inside this library read 4.11 (one replicate of three).

Reference: Engelhart et al. 2022, doi:10.1038/s41597-022-01779-4. File: FLAb, binding data.